Literature values in article PMC2666074.

Biological target: SIP (UniProt Q9HB71)
Assay: fluorescence spectroscopy

- pKd: 6.00
Substance: S100A6 (from UniProt P06703)

pKd: −log10 of the molar value.
